# Giardia killer: Giardia lamblia killing | Giardia lamblia trophozoite viability | AID 540267 | actives 0.15% (n = 340,000) | activity change, % at 7.66 µM, hits read low; in the data active = activity change below about -80%; inconclusive = between about -30% and that limit;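 also: parasites exposed to compound for two days anaerobically before the ATP read; % is scaled to controls: 0 for no effect and ±100 for the full control effect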
#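 ATP-content bioluminescence gauges trophozoite survival. Cells (100/well) receive compound and incubate anaerobically for 48 hrs at 37 deg C; detection reagent follows for 15-30 min at room temperature.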
# GALK inhibitor: blocks human galactokinase activity | P51570 | Purified GALK, Kinase-Glo residual ATP luminescence | Potency, µM (doses to about 57.5 µM), for the others: at the highest dose activity change, negative = inhibition, hits mostly inhibitors | actives 0.007% (n = 270,000); also: potency is read from the fitted curve at half-maximal effect; % is scaled to controls: 0 for no effect and ±100 for the full control effect
#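 Quantitative HTS: GALK 5 nM, ATP 35 uM, galactose 100 uM, 1 h room temperature, then luciferase-based ATP detection.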
# uPA surface inh: inhibitors of cell surface uPA generation; cell surface uPA generation assay, qHTS; Potency, µM (series often up to 38.3 µM), for the others: top-dose activity change, negative = inhibition, hits mostly inhibitors; actives 0.31% (n = 330,000); active = well fitted inhibition curve with a large enough effect; inconclusive = small, poorly fitted or top-dose-only effect; inactive = no such curve, though single readings can be large or run the other way; tested in mouse RAW 264.7 cells; also: potency is read from the fitted curve at half-maximal effect; % is scaled to controls: 0 for no effect and ±100 for the full control effect; nearly all actives have a fitted effect of over 55% in size
# miR-21 reporter: miR-21 reporter, rising signal | HeLa miR-21 FLuc reporter, luciferase, 48 h | Potency, µM (top dose mostly 38.3 µM), inactives show at the highest dose reporter change, positive = more light | 340,000 tested, under 10 active | AID 2288; active = well fitted rising curve with a large enough effect; inconclusive = small, poorly fitted or top-dose-only effect; inactive = no such curve, though single readings can be large or run the other way;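 note: % of control where 0% means no effect; miR-21 action dims this reporter so a rising signal means less miR-21 action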
#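 HeLa cells stably expressing CMV-driven firefly luciferase with a downstream miR-21 binding sequence, endogenously expressing miR-21, were treated with titrations (up to about 40uM final) for 48 hours at 37 degree Celsius. Luciferase luminescence was read after lysis.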
# Coupling enz: coupling enzyme interference in Giardia aldolase counter-screen | coupling enzyme system counterscreen, AmpLite Red fluorescence | activity change, negative = inhibition, % at 58.2 µM, hits read low | actives 0.67% (n = 290,000); in the data active = activity change below about -30%; also: % is scaled to controls: 0 for no effect and ±100 for the full control effect
#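 Fluorescence at 525 nm excitation and 598 nm emission measured inhibition of the coupled detection system without aldolase. Compounds (at 57.5 uM final) were preincubated 10 min at room temperature with coupling enzyme reagent before a 20 min substrate/AmpLite Red step.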
# B2AR arrestin: beta2AR (human) beta-arrestin recruitment activity. P07550. beta-arrestin recruitment to beta2AR, cell-based reporter. Potency, µM (highest dose often 46.1 µM), for inactives: at the top dose activation, usual class: activators. actives 0.02% (n = 330,000);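 also: potency is read from the fitted curve at half-maximal effect; 0% = DMSO controls and full agonism = EC100 isoproterenol or metaproterenol; nearly all actives have a fitted effect of over 65% in size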
# * marks the source's active call; other numbers are inactive results; ? = inconclusive; / = no result. An excerpt weighted towards active compounds, which were near 0.92% of everything screened. Unless noted, calls follow the shape of the dose curve; as a rule, active = well fitted curve in the direction sought with a large enough effect; inconclusive = small, poorly fitted or top-dose-only effect, or another doubt; inactive = no such curve, though single readings can be large; an effect the other way counts as inactive or inconclusive.
SMILES,Giardia killer,GALK inhibitor,uPA surface inh,miR-21 reporter,Coupling enz,B2AR arrestin
COc1cc2c(cc1OC)-c1c(OC)c(OC)cc3c1C(C2)N(C)CC3 (stereo not given),-7,-1%,-26%,-16%,-42*,0%
COc1cc2c(cc1OC)-c1c(O)c(OC)cc3c1[C@H](C2)N(C)CC3,/,/,/,/,-26,/
COc1cc(-c2cccc([C@H]3[C@@H]4C=CC[C@@H](C)[C@@H]4C(=O)N3Cc3ccccc3)c2)cc(OC)c1OC,-29,/,?,/,0,-1%
C=C/C(=C/C(=O)C[C@H](C)C[C@@H](C)CC[C@H](O)[C@H](C)C(=O)C[C@@H](O)[C@H](C)[C@@H](C)OC(=O)C[C@@H](O)C1=C(C)C(=O)OC1=O)CC,/,/,/,/,2,/
CCN1C(=O)NC(=O)/C(=C/c2cc(C)n(-c3sc(C)c(C)c3C#N)c2C)C1=O,26,2%,8%,-14%,-37*,0%
Nc1c(C(=O)NCCCc2ccccc2)c2nc3ccccc3nc2n1Cc1cccs1,-2,-1%,/,2%,-51*,0%
Nc1c(C(=O)NCc2ccco2)c2nc3ccccc3nc2n1Cc1ccc(F)cc1,-7,-1%,-10%,23%,-40*,0%
CCCCCn1c(N)c(C(=O)NCc2cccs2)c2nc3ccccc3nc21,5,-1%,/,2%,-17,-1%
CC(C)c1ccc(/C=C2\SC(=S)N(CCC(=O)N3CCCCC3CCO)C2=O)cc1 (stereo not given),6,6%,?,?,/,0%
CC(C)OC(=O)C(O)(c1ccc(Cl)cc1)c1ccc(Cl)cc1,/,/,/,/,0,/
COc1cc(C2c3cc4c(cc3C(O)C3COC(=O)C23)OCO4)cc(OC)c1O (stereo not given),/,/,/,/,0,/
COc1cc([C@@H]2c3cc4c(cc3[C@@H](OC)[C@H]3COC(=O)[C@H]23)OCO4)cc(OC)c1O,3,-2%,1.6µM*,22%,8,0%
CCCC[C@@H](C)[C@@H](OC(=O)C[C@@H](CC(=O)O)C(=O)O)[C@H](C[C@@H](C)CCCCCC[C@@H](O)C[C@H](O)[C@H](C)N)OC(=O)C[C@@H](CC(=O)O)C(=O)O,/,/,/,/,9,/
O=C(Nc1cccc(C(=O)Nc2cc(C(=O)Nc3ccc([S+](=O)([O-])[O-])c4cc([S+](=O)([O-])[O-])cc(SOOO)c34)ccc2F)c1)Nc1cccc(C(=O)Nc2cc(C(=O)Nc3ccc([S+](=O)([O-])[O-])c4cc([S+](=O)([O-])[O-])cc([S+](=O)([O-])[O-])c34)ccc2F)c1,/,/,/,/,15,/
Oc1ccc2c(c1)[C@@]13CCCCC1[C@@H](C2)N(CC1CCC1)CC3 (stereo not given in full),/,/,/,/,-1,/
Cc1ccc(N/C(N)=N/c2nc(CSc3nnc(C)s3)cc(=O)[nH]2)c(C)c1,37,1%,3.5µM*,22%,0,0%
Cc1cccc(-c2noc(CN(C(=O)C(c3ccccc3)c3ccccc3)C(C)C)n2)c1,8,-1%,?,3%,-4,0%
OC12ONC(c3ccccn3)C1N1CCC2CC1 (stereo not given),2,1%,-11%,8%,0,18µM*
CC(C)(C)c1cc([N+](=O)[O-])cc(C(C)(C)C)c1O,-9,10%,7.9µM*,28%,0,0%
NC(=O)c1cc([N+](=O)[O-])cc([N+](=O)[O-])c1,-22,/,-2%,/,0,/
CCCCC(C#N)(Cn1cncn1)c1ccc(Cl)cc1 (stereo not given),/,/,/,/,3,/
CN1CCN(c2ccc([N+](=O)[O-])c3cccnc23)CC1,-84*,0%,9%,-19%,-3,0%
CCC1OC2(C)C(O)C(/C=C/C=C/C=C/c3oc(=O)cc(OC)c3C)OC1(C)C2OC(C)=O (stereo not given),/,/,/,/,2,/
Cc1cc(C)c(CN2CCN(C(=O)Cn3cnc4c(NCc5ccccc5)ncnc43)CC2)c(C)c1,-28,/,?,/,/,0%

# Arranged by molar mass (smallest number first): some entries from above
SMILES,Giardia killer,GALK inhibitor,uPA surface inh,miR-21 reporter,Coupling enz,B2AR arrestin
CC(C)(C)c1cc([N+](=O)[O-])cc(C(C)(C)C)c1O,-9,10%,7.9µM*,28%,0,0%
COc1cc(C2c3cc4c(cc3C(O)C3COC(=O)C23)OCO4)cc(OC)c1O (stereo not given),/,/,/,/,0,/
Cc1cccc(-c2noc(CN(C(=O)C(c3ccccc3)c3ccccc3)C(C)C)n2)c1,8,-1%,?,3%,-4,0%
O=C(Nc1cccc(C(=O)Nc2cc(C(=O)Nc3ccc([S+](=O)([O-])[O-])c4cc([S+](=O)([O-])[O-])cc(SOOO)c34)ccc2F)c1)Nc1cccc(C(=O)Nc2cc(C(=O)Nc3ccc([S+](=O)([O-])[O-])c4cc([S+](=O)([O-])[O-])cc([S+](=O)([O-])[O-])c34)ccc2F)c1,/,/,/,/,15,/

# Screens as filed in PubChem.
